Screening results deposited in PubChem BioAssay by National Center for Advancing Translational Sciences (NCATS).
Lamin A splicing: modulators of lamin A splicing | HeLa LMNA splicing GFP/RFP minigene ratio, 48 h | Potency, µM (series often up to 46.1 µM), for the others: at the highest dose ratio change, negative = inhibition, most hits filed as inhibitors | 200,000 tested, 0.01% active; active = well fitted inhibition curve with a large enough effect in the signal ratio, with a control signal flat, not every such curve was filed as active; inconclusive = small, poorly fitted or top-dose-only effect, or effect the other way, or a change in a side signal; the % refers to the signal ratio; note: potency is the fitted concentration of half-maximal effect; % is set by controls: 0 for no effect and ±100 for the full control effect
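S3 HeLa stable clones carrying a lamin A-EGFP splicing minigene plus DsRed2 were seeded at 600 cells/well in Opti-MEM with 2% FBS, pin-dosed and incubated 48 h at 37°C. Acumen cytometry (488 nm) gave the GFP/RFP total-intensity ratio.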
G9a block: inhibitors of human histone lysine methyltransferase G9a; Q96KQ7; G9a H3K9 monomethylation, AlphaScreen, 2 h; Potency, µM (top dose mostly 102 µM), without a hit: at the highest dose activity, negative = inhibition, hits mostly inhibitors; 350,000 tested, 8.8% active; note: potency is the fitted concentration of half-maximal effect; % is set by controls: 0 for no effect and ±100 for the full control effect; nearly all actives have a fitted effect of over 75% in size
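Using a bead-based AlphaScreen, monomethylated H3K9 product from 2 h room-temperature reactions (G9a 20 nM, peptide 500 nM, SAM 20 uM) was detected with 0.5 ug/mL rabbit anti-H3K9me1 antibody.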
ALDH1A1 inh: ALDH1A1 (human) enzyme inhibition; P00352; Potency, µM (top dose mostly 75.3 µM), without a hit: top-dose activity, negative = inhibition, hits mostly inhibitors; Purified ALDH1A1, NADH fluorescence, propionaldehyde substrate; 220,000 tested, 7.3% active; active = well fitted inhibition curve with a large enough effect, not every such curve was filed as active; inconclusive = small, poorly fitted or top-dose-only effect, or another doubt; inactive = no such curve, though single readings can be large or run the other way;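 note: potency is the fitted concentration of half-maximal effect; plate controls were no enzyme wells and a reference inhibitor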
KDM4E inh: blocks human JMJD2E demethylase activity; B2RXH2; JMJD2E catalytic domain, FDH-coupled NADH fluorescence (FDH is formaldehyde dehydrogenase); Potency, µM (top dose mostly 57.1 µM), without a hit: at the highest dose activity change, negative = inhibition, actives largely listed as inhibitors; 230,000 tested, 1.6% active; active = well fitted inhibition curve with a large enough effect, not every such curve was filed as active; inconclusive = small, poorly fitted or top-dose-only effect, or another doubt; inactive = no such curve, though single readings can be large or run the other way;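 note: potency is the fitted concentration of half-maximal effect; 0% = wells with enzyme and -100% = buffer wells without enzyme; nearly all actives have a fitted effect of over 50% in size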
miR-21 FLuc: miR-21 reporter, rising signal; 340,000 tested, under 10 active; Potency, µM (highest dose often 38.3 µM), for the others: top-dose reporter change, positive = more light; HeLa miR-21 FLuc reporter, luciferase, 48 h; active = well fitted rising curve with a large enough effect; inconclusive = small, poorly fitted or top-dose-only effect; inactive = no such curve, though single readings can be large or run the other way;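 further: % of control where 0% means no effect; miR-21 action dims this reporter so a rising signal means less miR-21 action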
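Compounds were titrated across several concentrations (up to approximately 40 uM) and incubated 48 hours with HeLa miR-21-FLuc reporter cells (miR-21 target sequence downstream of FLuc, endogenous miR-21). Readout was firefly luciferase luminescence after lytic detection reagent.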
Sfp PPTase inh: blocks B. subtilis Sfp PPTase activity. AID 1490. Q9F4F7. Biochemical Sfp PPTase activity, qHTS. hit rate 3.5% among 310,000. Potency, µM, for the others: max response, negative = inhibition, usual class: inhibitors; active = well fitted inhibition curve with a large enough effect; inconclusive = small, poorly fitted or top-dose-only effect, or another doubt; inactive = no such curve, though single readings can be large or run the other way;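 also: the enzyme is Sfp with the accession as filed and its product quenches rhodamine fluorescence; potency is read from the fitted curve at half-maximal effect; 0% = enzyme reaction without inhibitor and -100% = no enzyme wells; top concentration of the series not given in the record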
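Compounds were incubated with enzyme (final 15 nM) for 15 min at room temperature before substrate addition started the reaction. Fluorescence at 525 nm excitation, 598 nm emission was recorded immediately and after 30 minutes.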
* marks the source's active call; other numbers are inactive results; [ ] = another dose, or the depositor's remark. This is a sample that favours compounds with a hit; in the whole collection about 13% have one here. Unless noted, calls come from the whole dose curve; as a rule, active = well fitted curve in the direction sought with a large enough effect; inconclusive = small, poorly fitted or top-dose-only effect, or another doubt; inactive = no such curve, though single readings can be large; an effect the other way counts as inactive or inconclusive.

What do the screens show for `N#Cc1cc(Br)ccc1N=C1CCCN1c1ccccc1`?
Lamin A splicing: inconclusive; G9a block: inconclusive; ALDH1A1 inh: -2%; KDM4E inh: 1%; miR-21 FLuc: 1%; Sfp PPTase inh: 1%

Results for Cc1ccc(C(=O)Nc2ccc3c(c2)CCC3)o1 ?
Lamin A splicing: -4%; G9a block: -10%[12.7 µM]; ALDH1A1 inh: 18µM*; KDM4E inh: 8%; miR-21 FLuc: -33%; Sfp PPTase inh: 4%

Results for Cc1c(Cl)cccc1NS(=O)(=O)c1c(C(=O)N2CCOCC2)c(C)n(C)c1C ?
G9a block: -6%[59 µM]; miR-21 FLuc: 0%; Sfp PPTase inh: 11%

Results for COC(=O)c1ccc(NC(=O)CC2C(=O)N(c3ccccc3)C(=O)N2Cc2cccs2)cc1 (stereo not drawn) ?
Lamin A splicing: -2%[46 µM]; G9a block: -7%[59 µM]; miR-21 FLuc: -3%

What do the screens show for `Cc1cn(-c2cc(NC(=O)c3ccc(C)c(NC(=O)c4cccc(-c5cn[nH]c(=O)c5)c4)c3)cc(C(F)(F)F)c2)cn1`?
G9a block: 14µM*; miR-21 FLuc: 15%; Sfp PPTase inh: 16%

How did NC(=O)NC(CC(=O)N1CCc2ccccc2C1)c1ccc(Cl)cc1 (stereo not drawn) do in these assays?
G9a block: -5%; miR-21 FLuc: 0%; Sfp PPTase inh: 5%

Results for COCCn1c(=O)c(-c2ccc(F)c(F)c2)nc2cncnc21 ?
G9a block: -2%[12.7 µM]; ALDH1A1 inh: -8%; Sfp PPTase inh: -6%

What do the screens show for `COc1ccc(CNC(=O)CCN2C(=O)[C@@H]3Cc4ccccc4CN3C2=O)cc1`?
G9a block: -6%; miR-21 FLuc: -2%; Sfp PPTase inh: 9%

How did CCOC(=O)CN1C(=O)C2Cc3ccccc3CN2C1=S (stereo not drawn) do in these assays?
Lamin A splicing: 2%; G9a block: 20µM*; ALDH1A1 inh: -3%; KDM4E inh: -4%; miR-21 FLuc: -12%; Sfp PPTase inh: -3%

How did COc1ccc2c(C)cc(SCC(=O)Nc3ncc(Cl)cc3Cl)nc2c1 do in these assays?
Lamin A splicing: -10%; G9a block: 25µM*; ALDH1A1 inh: inconclusive; KDM4E inh: -1%; miR-21 FLuc: -9%; Sfp PPTase inh: -9%

How did COCCn1c(C)cc(C(=O)CSc2cc(C)c3ccc(OC)cc3n2)c1C do in these assays?
Lamin A splicing: inconclusive; G9a block: 71µM*; ALDH1A1 inh: 4%; KDM4E inh: -6%; miR-21 FLuc: -3%; Sfp PPTase inh: -18%

How did COc1ccc2c(C)cc(SCC(=O)c3ccc4c(c3)OCO4)nc2c1 do in these assays?
Lamin A splicing: 25%; G9a block: -49%; ALDH1A1 inh: inconclusive; KDM4E inh: inconclusive; miR-21 FLuc: -17%; Sfp PPTase inh: 2%

What do the screens show for `O=C(NCc1cccn1Cc1ccccc1)Nc1cccc(C(F)(F)F)c1`?
Lamin A splicing: inconclusive; G9a block: 1%[59 µM]; miR-21 FLuc: -1%

How did CC(C)(C)c1ccc(S(=O)(=O)N2CCC(CO)(CC3CCCCO3)CC2)cc1 (stereo not drawn) do in these assays?
G9a block: 2%; ALDH1A1 inh: 0.32µM*; KDM4E inh: 2%; miR-21 FLuc: 0%; Sfp PPTase inh: 7%

Results for CC1=C(C(=O)Nc2ccccc2)C(c2ccc(C(=O)O)cc2)n2ncnc2N1 (stereo not drawn) ?
Lamin A splicing: inconclusive; G9a block: -35%[59 µM]; miR-21 FLuc: -2%

How did COc1ccc(Cl)cc1NC(=O)Cn1cc(C(=O)c2ccncc2)c(=O)c2cc(C)ccc21 do in these assays?
Lamin A splicing: -2%[46 µM]; G9a block: 8%[59 µM]; miR-21 FLuc: -2%

What do the screens show for `O=C(NCc1ccncc1)c1ccc(Br)o1`?
Lamin A splicing: 0%; G9a block: inconclusive; ALDH1A1 inh: 3.5µM*; KDM4E inh: -1%; miR-21 FLuc: 0%; Sfp PPTase inh: 3%

What do the screens show for `O=C(NCc1ccccc1Cl)c1ccc(Br)o1`?
Lamin A splicing: 4%[46 µM]; G9a block: 9%; ALDH1A1 inh: inconclusive; KDM4E inh: 9%; miR-21 FLuc: -1%; Sfp PPTase inh: 13%

Results for COc1ccccc1CNC(=O)c1ccc(Br)o1 ?
Lamin A splicing: 4%; G9a block: 35µM*; ALDH1A1 inh: inconclusive; KDM4E inh: -4%; miR-21 FLuc: -19%; Sfp PPTase inh: 6%

Results for O=C(Cn1nnc(-c2ccccc2NC(=O)c2ccccc2)n1)Nc1ccc2c(c1)OCCO2 ?
Lamin A splicing: -27%; G9a block: inconclusive; ALDH1A1 inh: inconclusive; KDM4E inh: inconclusive; miR-21 FLuc: -4%; Sfp PPTase inh: -18%

Grouped by structure, the compounds so far containing a CF3 group.
What do the screens show for `Cc1cn(-c2cc(NC(=O)c3ccc(C)c(NC(=O)c4cccc(-c5cn[nH]c(=O)c5)c4)c3)cc(C(F)(F)F)c2)cn1`?
G9a block: 14µM*; miR-21 FLuc: 15%; Sfp PPTase inh: 16%

What do the screens show for `O=C(NCc1cccn1Cc1ccccc1)Nc1cccc(C(F)(F)F)c1`?
Lamin A splicing: inconclusive; G9a block: 1%[59 µM]; miR-21 FLuc: -1%

Remaining list, next part
Results for Cc1ccccc1C(=O)Nc1ccccc1-c1nnn(CC(=O)Nc2ccc3c(c2)OCCO3)n1 ?
Lamin A splicing: 11%; G9a block: 19%[12.7 µM]; ALDH1A1 inh: inconclusive; KDM4E inh: inconclusive; miR-21 FLuc: -4%; Sfp PPTase inh: 56µM*

Results for COc1cc2c(cc1OC)C(c1cccs1)N(C(=O)c1cccc(S(=O)(=O)N(C)C)c1)CC2 (stereo not drawn) ?
G9a block: 50µM*; KDM4E inh: inconclusive; miR-21 FLuc: -19%; Sfp PPTase inh: -1%

How did COc1cc2c(cc1OC)C(c1ccccc1)N(C(=O)c1ccccc1)CC2 (stereo not drawn) do in these assays?
G9a block: -18%; miR-21 FLuc: 3%; Sfp PPTase inh: 5%

Results for CCOc1ccc(C(=O)N2CCC(c3ccncc3)CC2)cc1 ?
Lamin A splicing: 15%[46 µM]; G9a block: -4%[59 µM]; miR-21 FLuc: 16%

How did CC(=O)Nc1ccc(S(=O)(=O)Nc2ccc(C(=O)NCC(=O)O)cc2)cc1 do in these assays?
G9a block: 20µM*; KDM4E inh: -8%; miR-21 FLuc: 0%; Sfp PPTase inh: -12%

How did CCCc1nnc(NS(=O)(=O)c2ccc(OC)cc2)s1 do in these assays?
G9a block: 45µM*; ALDH1A1 inh: inconclusive; KDM4E inh: -1%; miR-21 FLuc: -4%; Sfp PPTase inh: inconclusive

How did CC(=O)Nc1ccc(S(=O)(=O)Nc2ccc(S(=O)(=O)Nc3nc(C)cc(C)n3)cc2)cc1 do in these assays?
G9a block: inconclusive; miR-21 FLuc: -4%; Sfp PPTase inh: -5%

How did Cc1ccc(CNC(=O)/C=C/C(=O)O)cc1 do in these assays?
Lamin A splicing: inconclusive; G9a block: inconclusive; ALDH1A1 inh: 0%; KDM4E inh: 3%; miR-21 FLuc: 1%; Sfp PPTase inh: -13%

Results for CCOC(=O)Nc1ccc(NS(=O)(=O)c2ccc(C)cc2)cc1 ?
Lamin A splicing: inconclusive; G9a block: 25%[12.7 µM]; ALDH1A1 inh: inconclusive; KDM4E inh: 3%; miR-21 FLuc: 8%; Sfp PPTase inh: 4%
